The record followed here is patent publication EP4778588A2, “ENZYMATICALLY CLEAVABLE LINKER AND LIGAND-ERIBULIN CONJUGATE CONTAINING SAME” (priority 2022, dated 2024).

The subject of the assay is SK-BR-3 cell line (human breast cancer cells). Nature of the assay: Cell viability test (same method as for Calu-6) in SK-BR-3 cells. In kind it is cell-based. To be noted: average DAR of 2 to 3, read-out: EC/IC50 values for cell viability. How it is done:
Human Calu-6 cells (manufacturer: Procell, product code: CL-327, human lung cancer cells) were resuscitated and seeded into a 96-well culture plate. The culture medium used was DMEM/F12 (manufacturer: Hyclone, product code: SH30023.01), supplemented with 10% FBS (manufacturer: Gibco, product code: 10099141). Each well contained 2,500 cells in 150 µl of medium. The plate was incubated at 37°C in a 5% CO2 incubator. Approximately 20 hours later, 50 µl of medium containing different antibody-drug conjugates were added to each well, setting the final drug concentrations at 0 to 100 nM across 12 dilution gradients (initial concentration: 100 nM; subsequent 5-fold serial dilutions across 10 gradients; last gradient containing no drug, and each sample was tested in duplicate wells). […] After a 2-minute reaction, fluorescence intensity was measured using a Tecan Spark instrument, following the reagent kit's recommended protocol. […] EC/IC50 values were calculated using four-parameter fitting.
Further, following the above examples, antibody-drug conjugates (ADCs) of Trastuzumab and Bemarituzumab conjugated with the linker-toxin MC-VAGGFG-PAB-Eribulin were prepared for validation. […] Activity was measured using the SK-BR-3 cell line (human breast cancer cells) and KATO III cell line (human gastric cancer cells).

Consider “Trastuzumab MC-VAGGFG-PAB-Eribulin: Trastuzumab conjugated with the linker-toxin MC-VAGGFG-PAB-Eribulin”, for which the IC50 was 0.032 nM.
